Test system: ischemia-reperfusion eye model
Conditions: rats, parenteral, within 96 hours of ischemia, doses of 3; 5; 10; 20 and 100 mg/kg

OC(COCCC12CC3CC(CC(C3)C1)C2)CN1CCOCC1 (stereo not shown) [1-adamantylethyloxy-3-morpholino-2-propanol]
disturbed indicators of acid-alkali balance, oxidative stress and energy metabolism in ischemic brain: promoted the normalization

From patent publication US9545409B2, “Use of 1-adamantylethyloxy-3-morpholino-2-propanol or pharmaceutically acceptable salts thereof in pharmaceutical compositions as a neuroretinal protector” (priority 2012, dated 2017)
